Values of other authors as cited in publication PMC6263254, “Solid-Phase Synthesis of Arylpiperazine Derivatives and Implementation of the Distributed Drug Discovery (D3) Project in the Search for CNS Agents” (Molecules, 2011).

Protein sequences, listed by entry. Tags and fused reporters are not part of them.
UniProt P14842, whole entry: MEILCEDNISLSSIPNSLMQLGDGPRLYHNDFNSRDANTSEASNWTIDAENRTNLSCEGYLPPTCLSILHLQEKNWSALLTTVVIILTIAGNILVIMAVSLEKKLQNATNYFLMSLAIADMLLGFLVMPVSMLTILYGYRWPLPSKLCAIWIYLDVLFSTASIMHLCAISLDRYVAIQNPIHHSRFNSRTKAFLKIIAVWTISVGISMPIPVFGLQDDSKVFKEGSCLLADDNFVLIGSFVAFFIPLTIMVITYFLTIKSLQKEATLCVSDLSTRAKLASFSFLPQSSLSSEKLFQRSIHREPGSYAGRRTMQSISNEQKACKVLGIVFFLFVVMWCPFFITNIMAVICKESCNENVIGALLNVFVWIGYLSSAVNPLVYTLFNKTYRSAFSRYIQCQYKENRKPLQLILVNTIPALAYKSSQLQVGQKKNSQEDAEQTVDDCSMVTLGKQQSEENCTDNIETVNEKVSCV

Molecular target: native serotonin 5-HT2A receptors (Rattus norvegicus, UniProt P14842)
Settings: read-out: Ki 5-HT2A; historical data; ref [4]; cited from earlier work

O=C(N[C@H]1CC(=O)N(CCCCN2CCN(c3cccc(Cl)c3)CC2)C1=O)C1CCCCC1
Ki: 6.5 nM
